Test results taken from patent publication EP4834897A1, “COMPOUNDS WITH TWO AZAHETEROCYCLES SUBSTITUTED ISOINDOLINONE SKELETON AND USES THEREOF” (dated 2026).

Protein sequences, listed by entry. Tags and fused reporters are not part of them.
UniProt P48729, whole entry: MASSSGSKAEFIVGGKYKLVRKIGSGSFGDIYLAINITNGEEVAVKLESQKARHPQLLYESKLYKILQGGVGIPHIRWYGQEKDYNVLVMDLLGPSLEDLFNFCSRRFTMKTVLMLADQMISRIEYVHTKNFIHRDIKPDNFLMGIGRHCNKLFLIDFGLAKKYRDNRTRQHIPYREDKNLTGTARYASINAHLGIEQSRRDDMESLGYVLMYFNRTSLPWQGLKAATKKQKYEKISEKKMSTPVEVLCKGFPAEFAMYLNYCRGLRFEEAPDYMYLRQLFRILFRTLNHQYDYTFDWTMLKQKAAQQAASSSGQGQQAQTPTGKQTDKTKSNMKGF
UniProt Q96SW2, whole entry: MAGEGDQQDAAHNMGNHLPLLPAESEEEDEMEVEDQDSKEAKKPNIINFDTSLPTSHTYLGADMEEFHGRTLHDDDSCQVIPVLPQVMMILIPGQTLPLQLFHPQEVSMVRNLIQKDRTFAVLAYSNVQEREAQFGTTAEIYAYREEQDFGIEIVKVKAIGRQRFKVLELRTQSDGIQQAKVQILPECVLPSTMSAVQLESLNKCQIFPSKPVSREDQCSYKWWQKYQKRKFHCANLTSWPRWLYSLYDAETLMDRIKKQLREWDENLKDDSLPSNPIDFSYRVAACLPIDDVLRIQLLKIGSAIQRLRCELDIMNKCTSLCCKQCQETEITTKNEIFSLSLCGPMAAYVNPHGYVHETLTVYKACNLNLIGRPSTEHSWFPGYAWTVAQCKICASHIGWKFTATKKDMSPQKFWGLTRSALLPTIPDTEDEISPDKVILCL
UniProt P15170, whole entry: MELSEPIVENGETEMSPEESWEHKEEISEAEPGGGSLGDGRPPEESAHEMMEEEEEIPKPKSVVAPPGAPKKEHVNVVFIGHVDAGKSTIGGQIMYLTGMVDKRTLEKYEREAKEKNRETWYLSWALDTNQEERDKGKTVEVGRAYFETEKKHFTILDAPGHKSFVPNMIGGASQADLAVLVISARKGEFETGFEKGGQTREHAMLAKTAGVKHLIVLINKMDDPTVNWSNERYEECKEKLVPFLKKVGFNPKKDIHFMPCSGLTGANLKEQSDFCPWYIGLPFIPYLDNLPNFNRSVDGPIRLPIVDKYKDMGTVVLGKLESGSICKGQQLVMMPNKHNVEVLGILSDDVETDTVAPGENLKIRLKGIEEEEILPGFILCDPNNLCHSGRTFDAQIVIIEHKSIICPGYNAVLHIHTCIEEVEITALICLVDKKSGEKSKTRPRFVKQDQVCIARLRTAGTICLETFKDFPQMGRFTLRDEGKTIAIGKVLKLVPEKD
UniProt Q13422, whole entry: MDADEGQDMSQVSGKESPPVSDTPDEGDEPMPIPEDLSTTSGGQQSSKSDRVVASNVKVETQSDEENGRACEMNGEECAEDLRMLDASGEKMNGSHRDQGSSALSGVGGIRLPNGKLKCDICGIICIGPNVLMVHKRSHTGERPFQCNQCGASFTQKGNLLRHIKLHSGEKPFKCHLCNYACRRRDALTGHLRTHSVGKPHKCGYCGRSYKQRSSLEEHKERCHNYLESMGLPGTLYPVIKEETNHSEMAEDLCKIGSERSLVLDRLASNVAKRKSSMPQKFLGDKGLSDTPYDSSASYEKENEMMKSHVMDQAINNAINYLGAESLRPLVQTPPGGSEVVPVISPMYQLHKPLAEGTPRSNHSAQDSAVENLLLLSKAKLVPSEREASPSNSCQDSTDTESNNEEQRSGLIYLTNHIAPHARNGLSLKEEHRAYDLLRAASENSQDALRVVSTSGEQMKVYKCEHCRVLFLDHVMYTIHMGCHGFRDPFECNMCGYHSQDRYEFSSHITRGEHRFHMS
UniProt Q9UKS7, whole entry: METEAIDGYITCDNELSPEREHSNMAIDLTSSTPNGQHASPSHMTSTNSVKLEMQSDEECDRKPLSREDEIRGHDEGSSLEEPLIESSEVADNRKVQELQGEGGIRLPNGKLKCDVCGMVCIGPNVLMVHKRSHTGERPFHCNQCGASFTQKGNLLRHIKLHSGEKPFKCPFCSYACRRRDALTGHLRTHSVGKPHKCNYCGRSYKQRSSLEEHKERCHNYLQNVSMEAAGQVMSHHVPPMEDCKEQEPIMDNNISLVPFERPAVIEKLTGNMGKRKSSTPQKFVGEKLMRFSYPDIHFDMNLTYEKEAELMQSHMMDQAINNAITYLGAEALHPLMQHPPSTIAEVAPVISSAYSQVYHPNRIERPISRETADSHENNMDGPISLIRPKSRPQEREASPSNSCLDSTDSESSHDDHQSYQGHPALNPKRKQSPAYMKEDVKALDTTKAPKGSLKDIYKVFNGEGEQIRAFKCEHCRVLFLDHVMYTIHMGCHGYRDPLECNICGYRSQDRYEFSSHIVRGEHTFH
UniProt Q9UKT9, whole entry: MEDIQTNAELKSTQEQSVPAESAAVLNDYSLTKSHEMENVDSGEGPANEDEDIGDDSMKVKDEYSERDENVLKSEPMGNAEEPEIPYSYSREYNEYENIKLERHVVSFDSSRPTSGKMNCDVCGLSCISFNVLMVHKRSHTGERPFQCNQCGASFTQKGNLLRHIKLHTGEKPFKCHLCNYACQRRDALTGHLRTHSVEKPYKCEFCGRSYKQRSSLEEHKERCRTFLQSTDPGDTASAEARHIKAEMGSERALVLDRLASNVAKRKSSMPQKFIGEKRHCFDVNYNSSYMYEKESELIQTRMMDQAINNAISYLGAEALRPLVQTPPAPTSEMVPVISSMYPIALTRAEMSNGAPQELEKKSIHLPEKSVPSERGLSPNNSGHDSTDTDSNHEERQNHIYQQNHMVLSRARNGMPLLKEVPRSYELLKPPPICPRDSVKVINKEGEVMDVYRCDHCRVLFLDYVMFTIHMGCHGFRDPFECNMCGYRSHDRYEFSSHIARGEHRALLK
UniProt P30291, whole entry: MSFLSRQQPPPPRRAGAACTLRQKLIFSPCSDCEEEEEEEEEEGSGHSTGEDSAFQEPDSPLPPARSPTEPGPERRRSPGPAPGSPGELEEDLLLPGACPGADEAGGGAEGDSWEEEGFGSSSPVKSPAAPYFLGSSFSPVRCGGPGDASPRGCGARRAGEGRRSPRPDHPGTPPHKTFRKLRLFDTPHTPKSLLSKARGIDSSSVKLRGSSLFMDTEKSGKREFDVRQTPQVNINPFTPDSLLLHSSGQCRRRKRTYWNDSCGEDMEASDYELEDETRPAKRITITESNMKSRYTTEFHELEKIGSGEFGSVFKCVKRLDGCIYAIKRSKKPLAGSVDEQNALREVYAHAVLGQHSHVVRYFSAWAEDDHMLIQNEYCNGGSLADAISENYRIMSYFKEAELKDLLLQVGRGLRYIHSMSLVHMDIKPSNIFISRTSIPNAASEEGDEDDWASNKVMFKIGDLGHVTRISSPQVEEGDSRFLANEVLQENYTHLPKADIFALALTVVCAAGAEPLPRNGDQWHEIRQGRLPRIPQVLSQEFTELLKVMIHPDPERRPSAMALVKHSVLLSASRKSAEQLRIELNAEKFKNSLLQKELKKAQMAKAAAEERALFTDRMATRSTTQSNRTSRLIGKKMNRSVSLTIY
UniProt Q16531, whole entry partner: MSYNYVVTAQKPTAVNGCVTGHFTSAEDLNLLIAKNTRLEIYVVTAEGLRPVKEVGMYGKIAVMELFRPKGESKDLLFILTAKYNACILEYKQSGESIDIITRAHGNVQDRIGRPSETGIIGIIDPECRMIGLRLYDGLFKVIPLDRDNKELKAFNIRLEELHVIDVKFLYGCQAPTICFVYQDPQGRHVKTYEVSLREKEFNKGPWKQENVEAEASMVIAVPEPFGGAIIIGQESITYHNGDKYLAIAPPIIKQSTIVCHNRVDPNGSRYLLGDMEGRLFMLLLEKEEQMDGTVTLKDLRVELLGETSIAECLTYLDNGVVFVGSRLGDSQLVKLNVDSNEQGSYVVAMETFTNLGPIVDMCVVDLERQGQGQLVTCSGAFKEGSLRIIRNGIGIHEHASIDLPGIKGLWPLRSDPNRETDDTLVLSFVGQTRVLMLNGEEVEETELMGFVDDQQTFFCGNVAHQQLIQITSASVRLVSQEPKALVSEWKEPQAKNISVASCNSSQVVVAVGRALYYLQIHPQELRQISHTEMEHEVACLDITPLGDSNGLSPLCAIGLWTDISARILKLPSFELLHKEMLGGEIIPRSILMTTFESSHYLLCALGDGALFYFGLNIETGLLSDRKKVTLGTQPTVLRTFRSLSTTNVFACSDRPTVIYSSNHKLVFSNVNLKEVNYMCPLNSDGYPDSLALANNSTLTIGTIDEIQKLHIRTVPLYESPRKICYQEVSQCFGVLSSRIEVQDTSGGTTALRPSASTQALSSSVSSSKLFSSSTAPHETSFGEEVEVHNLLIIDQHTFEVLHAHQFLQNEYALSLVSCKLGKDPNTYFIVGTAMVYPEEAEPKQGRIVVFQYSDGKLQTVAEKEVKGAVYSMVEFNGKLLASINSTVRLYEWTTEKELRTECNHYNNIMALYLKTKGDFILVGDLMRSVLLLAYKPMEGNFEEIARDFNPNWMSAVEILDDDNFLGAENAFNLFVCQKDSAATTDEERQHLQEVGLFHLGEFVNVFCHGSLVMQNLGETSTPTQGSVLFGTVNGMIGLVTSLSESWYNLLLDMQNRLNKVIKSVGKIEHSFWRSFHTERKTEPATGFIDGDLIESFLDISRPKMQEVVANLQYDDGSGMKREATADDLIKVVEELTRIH

Tests used:
Assay in all cases: Western blot assay of substrate protein degradation in hPBMCs
Details in all cases: 24 hours treatment, compounds at 50 nM and 500 nM (concentration behind the class not stated)
CK1α = CK1α (Homo sapiens, UniProt P48729+Q96SW2)
GSPT1 = GSPT1 (Homo sapiens, UniProt P15170+Q96SW2)
IKZF1 = IKZF1 (Homo sapiens, UniProt Q13422+Q96SW2)
IKZF2 = IKZF2 (Homo sapiens, UniProt Q96SW2+Q9UKS7)
IKZF3 = IKZF3 (Homo sapiens, UniProt Q96SW2+Q9UKT9)
WEE1 = WEE1 (Homo sapiens, UniProt P30291+Q96SW2)

Compound | substrate protein remaining % (CK1a) (CK1α) | substrate protein remaining % (GSPT1) (GSPT1) | substrate protein remaining % (IKZF 1) (IKZF1) | substrate protein remaining % (IKZF2) (IKZF2) | substrate protein remaining % (IKZF3) (IKZF3) | substrate protein remaining % (WEE1) (WEE1)
O=C1CCN(N2Cc3cc(CN4CCC(N5CCN(C(c6ccccc6)c6ccccc6)CC5)CC4)ccc3C2=O)C(=O)N1 | B (80%< substrate protein remaining %≤ 100%) | B (80%< substrate protein remaining %≤ 100%) | B (80%< substrate protein remaining %≤ 100%) | A (0% ≤ substrate protein remaining % ≤ 80%) | A (0% ≤ substrate protein remaining % ≤ 80%) | B (80%< substrate protein remaining %≤ 100%)
CC1(C)CCC(CN2CCN(C3CCN(Cc4ccc5c(c4)C(=O)N(C4CCC(=O)NC4=O)C5=O)CC3(F)F)CC2)=C(c2ccc(Cl)cc2)C1 (stereo not drawn) | B (80%< substrate protein remaining %≤ 100%) | A (0% ≤ substrate protein remaining % ≤ 80%) | B (80%< substrate protein remaining %≤ 100%) | A (0% ≤ substrate protein remaining % ≤ 80%) | B (80%< substrate protein remaining %≤ 100%) | A (0% ≤ substrate protein remaining % ≤ 80%)
O=C1CCC(N2Cc3cc(CCCN4CCC(N5CCC(c6noc7cc(F)ccc67)CC5)C(F)(F)C4)ccc3C2=O)C(=O)N1 (stereo not drawn) | A (0% ≤ substrate protein remaining % ≤ 80%) | A (0% ≤ substrate protein remaining % ≤ 80%) | B (80%< substrate protein remaining %≤ 100%) | A (0% ≤ substrate protein remaining % ≤ 80%) | A (0% ≤ substrate protein remaining % ≤ 80%) | A (0% ≤ substrate protein remaining % ≤ 80%)
O=C1CCC(N2C(=O)c3ccc(C(=O)N4CCC(N5CCN(c6cccc(Cl)c6Cl)CC5)C(F)(F)C4)cc3C2=O)C(=O)N1 (stereo not drawn) | B (80%< substrate protein remaining %≤ 100%) | A (0% ≤ substrate protein remaining % ≤ 80%) | B (80%< substrate protein remaining %≤ 100%) | B (80%< substrate protein remaining %≤ 100%) | B (80%< substrate protein remaining %≤ 100%) | B (80%< substrate protein remaining %≤ 100%)
O=C1CCC(N2C(=O)c3ccc(CN4CCC(N5CC=C(c6cccc(Cl)c6Cl)CC5)C(F)(F)C4)cc3C2=O)C(=O)N1 (stereo not drawn) | B (80%< substrate protein remaining %≤ 100%) | A (0% ≤ substrate protein remaining % ≤ 80%) | B (80%< substrate protein remaining %≤ 100%) | B (80%< substrate protein remaining %≤ 100%) | B (80%< substrate protein remaining %≤ 100%) | B (80%< substrate protein remaining %≤ 100%)
O=C1CCC(N2Cc3ccc(CN4CCC(N5CC=C(c6cccc(Cl)c6Cl)CC5)C(F)(F)C4)cc3C2=O)C(=O)N1 (stereo not drawn) | B (80%< substrate protein remaining %≤ 100%) | A (0% ≤ substrate protein remaining % ≤ 80%) | B (80%< substrate protein remaining %≤ 100%) | B (80%< substrate protein remaining %≤ 100%) | B (80%< substrate protein remaining %≤ 100%) | B (80%< substrate protein remaining %≤ 100%)
CC1(C)CCC(CN2CCN(C3CCN(C(=O)c4cc5c(cc4F)C(=O)N(C4CCC(=O)NC4=O)C5)CC3(F)F)CC2)=C(c2ccc(Cl)cc2)C1 (stereo not drawn) | A (0% ≤ substrate protein remaining % ≤ 80%) | A (0% ≤ substrate protein remaining % ≤ 80%) | B (80%< substrate protein remaining %≤ 100%) | B (80%< substrate protein remaining %≤ 100%) | B (80%< substrate protein remaining %≤ 100%) | B (80%< substrate protein remaining %≤ 100%)
O=C1CCC(N2C(=O)c3cccc(CN4CCC(N5CCN(c6noc7cc(F)ccc67)CC5)C(F)(F)C4)c3C2=O)C(=O)N1 (stereo not drawn) | B (80%< substrate protein remaining %≤ 100%) | B (80%< substrate protein remaining %≤ 100%) | B (80%< substrate protein remaining %≤ 100%) | A (0% ≤ substrate protein remaining % ≤ 80%) | A (0% ≤ substrate protein remaining % ≤ 80%) | B (80%< substrate protein remaining %≤ 100%)
O=C1CCC(N2C(=O)c3cccc(C(=O)N4CCC(N5CCN(c6noc7cc(F)ccc67)CC5)CC4)c3C2=O)C(=O)N1 (stereo not drawn) | B (80%< substrate protein remaining %≤ 100%) | A (0% ≤ substrate protein remaining % ≤ 80%) | A (0% ≤ substrate protein remaining % ≤ 80%) | B (80%< substrate protein remaining %≤ 100%) | B (80%< substrate protein remaining %≤ 100%) | B (80%< substrate protein remaining %≤ 100%)
O=C1CCC(N2Cc3ccc(CN4CCC(N5CCN(C(c6ccccc6)c6ccccc6)CC5)CC4)cc3C2=O)C(=O)N1 (stereo not drawn) | B (80%< substrate protein remaining %≤ 100%) | A (0% ≤ substrate protein remaining % ≤ 80%) | B (80%< substrate protein remaining %≤ 100%) | A (0% ≤ substrate protein remaining % ≤ 80%) | A (0% ≤ substrate protein remaining % ≤ 80%) | B (80%< substrate protein remaining %≤ 100%)
O=C1CCC(N2C(=O)c3ccc(C(=O)N4CCC(N5CC=C(c6cccc(Cl)c6Cl)CC5)C(F)(F)C4)cc3C2=O)C(=O)N1 (stereo not drawn) | B (80%< substrate protein remaining %≤ 100%) | A (0% ≤ substrate protein remaining % ≤ 80%) | B (80%< substrate protein remaining %≤ 100%) | B (80%< substrate protein remaining %≤ 100%) | B (80%< substrate protein remaining %≤ 100%) | A (0% ≤ substrate protein remaining % ≤ 80%)
